{
  "sequences": {"note": "Protein sequences, listed by entry. Tags and fused reporters are not part of them. Lines headed by an entry give the natural chain unless they say otherwise; changes in a name come on top.", "UniProt Q02198": "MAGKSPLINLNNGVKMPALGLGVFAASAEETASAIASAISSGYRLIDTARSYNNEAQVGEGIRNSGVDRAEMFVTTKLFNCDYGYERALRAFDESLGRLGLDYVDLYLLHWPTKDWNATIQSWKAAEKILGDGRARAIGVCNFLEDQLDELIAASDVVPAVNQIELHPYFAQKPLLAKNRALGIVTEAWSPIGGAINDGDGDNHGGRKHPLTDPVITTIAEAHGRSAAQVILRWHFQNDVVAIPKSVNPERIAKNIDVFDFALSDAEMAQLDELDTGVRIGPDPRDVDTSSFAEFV"},
  "source": "patent US5298414A",
  "about": "(priority 1989, dated 1994)",
  "key": {"[1]": {"molecular_target": "morphine dehydrogenase (MDH) (Pseudomonas putida, UniProt Q02198)", "assay": "Substrate analogues of MDH (Example 3, NADP+ reduction at 340 nm)", "type": "biochemical, Pseudomonas putida MlO", "conditions": "substrate 2 mM, glycine-NaOH pH 10, 5 μg purified MDH, 2 mM NADP, 30° C."}, "AMCE and MDH": {"tested_on": "AMCE and MDH", "assay": "Coupled AMCE/MDH spectrophotometric assay for the detection of heroin", "conditions": "pH 10, 2 mM NADP, 0.6 mg AMCE, 2.8 μg MDH, U = μmol. NADPH/min"}},
  "data": [
    {"smiles": "CC(=O)Oc1ccc2c3c1O[C@H]1[C@@H](OC(C)=O)C=C[C@H]4[C@@H](C2)N(C)CC[C@@]341", "values": [
      {"measurement": "ability to serve as MDH substrate", "setting": "[1]", "value": "completely inactive"},
      {"measurement": "Activity", "setting": "AMCE and MDH; heroin 0.25 mM", "value": 0.03, "unit": "U × 10^3"},
      {"measurement": "Activity", "setting": "AMCE and MDH; heroin 0.5 mM", "value": 0.08, "unit": "U × 10^3"},
      {"measurement": "Activity", "setting": "AMCE and MDH; heroin 0.75 mM", "value": 0.2, "unit": "U × 10^3"},
      {"measurement": "Activity", "setting": "AMCE and MDH; heroin 1.0 mM", "value": 0.6, "unit": "U × 10^3"},
      {"measurement": "Activity", "setting": "AMCE and MDH; heroin 1.5 mM", "value": 0.7, "unit": "U × 10^3"}
    ]}
  ]
}
